Laboratory results as given in patent publication US6436945B2, “Substituted O6-benzyl-8-aza-guanines” (The United States of America as represented by the of …, priority 1994, dated 2002).

Tests used:
[1] = target: T1, O^6-alkylguanine-DNA alkyltransferase (AGT) (Homo sapiens, UniProt P16455); parameters: endogenous in cells; host or cells: HT29 human colon tumor cells; details: incubation for 4 hr; Table 1; from Moschel et al. 1992; read-out: ED50 In HT29 cells; cited from earlier work
T1 sequence (P16455 1-207): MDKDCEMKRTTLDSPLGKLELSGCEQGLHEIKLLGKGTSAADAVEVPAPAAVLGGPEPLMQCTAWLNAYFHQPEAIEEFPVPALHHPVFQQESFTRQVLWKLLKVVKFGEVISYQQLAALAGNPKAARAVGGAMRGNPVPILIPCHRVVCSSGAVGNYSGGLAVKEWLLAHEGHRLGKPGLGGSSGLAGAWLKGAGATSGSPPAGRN

[2] = target: T2, alkyltransferase G156A (Homo sapiens, UniProt P16455, G156A); assay: Inhibition of mutant alkyltransferase proteins, G156A; assay type: biochemical; details: concentration to inactivate 50% of the activity in 30 minutes, read-out: ED50 value
T2 construct: made in house
T2 sequence (P16455 1-207 G156A): T1 sequence (P16455 1-207) with G156A

[3] = target: T1, O^6-alkylguanine-DNA alkyltransferase (AGT); parameters: endogenous in cells; host or cells: HT29 human colon tumor cells; details: read-out: ED50 In HT29 cell-free extract; incubation for 30 min; Table 1; from Moschel et al. 1992; cited from earlier work
[4] = target: T3, Control alkyltransferase (Homo sapiens, UniProt P16455); assay: Inhibition of alkyltransferase proteins, control protein; assay type: biochemical
T3 sequence (P16455 1-207): T1 sequence (P16455 1-207)

[5] = target: T4, alkyltransferase P140A (Homo sapiens, UniProt P16455, P140A); assay: Inhibition of mutant alkyltransferase proteins, P140A; assay type: biochemical; details: concentration to inactivate 50% of the activity in 30 minutes, read-out: ED50 value
T4 construct: made in house
T4 sequence (P16455 1-207 P140A): T1 sequence (P16455 1-207) with P140A

[6] = target: T5, alkyltransferase P138A/P140A (Homo sapiens, UniProt P16455, P138A/P140A); assay: Inhibition of mutant alkyltransferase proteins, P138A/P140A; assay type: biochemical; details: concentration to inactivate 50% of the activity in 30 minutes, read-out: ED50 value
T5 construct: made in house
T5 sequence (P16455 1-207 P138A/P140A): T1 sequence (P16455 1-207) with P138A, P140A

For Nc1nc(OCc2ccccc2)c2[nH]cnc2n1 [O^6-benzylguanine, reference compound], the EC50 [1] is listed as 0.05 µM, the EC50 [2] is listed as 60 µM and the EC50 [3] is listed as 0.2 µM. The EC50 [4] was 0.25 µM, the EC50 [5] was 5 µM and the EC50 [6] was 22 µM.

Positions count from the first letter of the chain named. Read-outs that look alike come from different tables or passages of the source.
